Measured values published in ChEMBL document CHEMBL5500409, “Discovery of 5-(Piperidin-4-yl)-1,2,4-oxadiazole Derivatives as a New Class of Human Caseinolytic Protease P Agonists for the Treatment of Hepatocellular Carcinoma” (J Med Chem, 2024).

Columns and labels:
in vivo [1] = conditions: rat, po, 15 mg/kg
HCCLM3 [2] = assay: animal or person; conditions: Mus musculus, HCCLM3, 672 h, read-out: TGI
HCCLM3 [3] = assay: animal or person; conditions: Mus musculus, HCCLM3, 672 h, read-out: TGI; remark: listed apart in the source
in vivo [4] = conditions: rat, po, 15 mg/kg; remark: listed apart in the source
in vivo [5] = conditions: Balb/c, mouse, ip, 400 mg/kg
in vivo [6] = conditions: rat, po, 15 mg/kg; remark: listed apart in the source
in vivo [7] = conditions: rat, iv, 5 mg/kg
in vivo [8] = conditions: rat, po, 15 mg/kg; remark: listed apart in the source
in vivo [9] = conditions: rat, iv, 5 mg/kg; remark: listed apart in the source
in vivo [10] = conditions: rat, iv, 5 mg/kg; remark: listed apart in the source
in vivo [11] = conditions: rat, po, 15 mg/kg; remark: listed apart in the source
in vivo [12] = conditions: rat, iv, 5 mg/kg; remark: listed apart in the source
HCCLM3 [13] = assay: animal or person; conditions: Mus musculus, HCCLM3, 672 h, read-out: TGI; remark: listed apart in the source
in vivo [14] = conditions: rat, iv, 5 mg/kg; remark: listed apart in the source
HCCLM3 [15] = assay: cells; conditions: Homo sapiens, HCCLM3, 72 h, read-out: INH
in vivo [16] = conditions: Balb/c, mouse, ip
HCCLM3 [17] = assay: animal or person; conditions: Mus musculus, HCCLM3, 672 h, read-out: TGI; remark: listed apart in the source
in vivo [18] = conditions: rat, po, 15 mg/kg; remark: listed apart in the source

For `N#Cc1cccc(CN2CCC(c3nc(Cc4ccc(F)c(Cl)c4)no3)CC2)c1`, which MRT last (in vivo [1]) is on record?
The MRT last was 9.1 h.

And the inhibition in vivo at 10 mg/kg (HCCLM3 [2])?
The inhibition in vivo at 10 mg/kg was 60.9%.

And the inhibition in vivo at 80 mg/kg (HCCLM3 [3])?
The inhibition in vivo at 80 mg/kg was 77%.

What about the Cmax (in vivo [4]) of the same compound?
The Cmax was 397 ng/mL.

What about the mortality at 72 h (in vivo [5]) of the same compound?
Its mortality at 72 h is 50%.

What about the half-life (in vivo [6]) of the same compound?
Its half-life is 6 h.

And the half-life (in vivo [7])?
The half-life was 4.2 h.

What about the bioavailability (in vivo [8]) of the same compound?
Its bioavailability is 29.8%.

What about the Cmax (in vivo [9]) of the same compound?
Its Cmax is 2100 ng/mL.

What about the AUC(0-t) (in vivo [10]) of the same compound?
The AUC(0-t) was 3420 ng·h/mL.

And the AUC(0-t) (in vivo [11])?
The AUC(0-t) was 3050 ng·h/mL.

And the MRT last (in vivo [12])?
The MRT last was 4.5 h.

What about the inhibition in vivo at 40 mg/kg (HCCLM3 [13]) of the same compound?
Its inhibition in vivo at 40 mg/kg is 85.2%.

What about the clearance (in vivo [14]) of the same compound?
Its clearance is 26.7 mL/min/kg.

What about the inhibition at 10 µM (HCCLM3 [15]) of the same compound?
The inhibition at 10 µM was 93.2%.

What about the LD50 at 360 h (in vivo [16]) of the same compound?
The LD50 at 360 h was 400 mg/kg.

And the inhibition in vivo at 20 mg/kg (HCCLM3 [17])?
Its inhibition in vivo at 20 mg/kg is 61.9%.

What about the Tmax (in vivo [18]) of the same compound?
The Tmax was 1.4 h.
